NRP1-CendR mod = modulators of CendR peptide binding to NRP-1, primary screen, biochemical, fluorescence polarization, uHTS | FAM-RPARPAR peptide binding to NRP-1 | Neuropilin-1 (Homo sapiens), O14786 | actives 0.85% (n = 360,000) | inhibition, % at 25 µM | AID 602438, 2012;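 active = inhibition or corrected inhibition above about 18%, plus a signal ratio from 0.5 to 1.5, limit read from the data, passing the limit was not always enough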
ARFGAP1 inh = inhibitors of rat ARFGAP1 GAP activity, primary screen, biochemical, fluorescence polarization, GDP tracer | Arfgap1-stimulated ARF1 GTP hydrolysis, GDP FP detection | inhibition, % at 16.5 µM | ADP-ribosylation factor GTPase-activating protein 1 (Rattus norvegicus), Q62848 | actives 0.26% (n = 360,000);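 active = inhibition above a per-plate limit, mean inhibition of low control wells plus 3 SD, cut at about 25% in these data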;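 also: 0% = DMSO wells with enzyme and 100% = wells lacking Arfgap1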
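Assay system: purified rat His6-Arfgap1 residues 1-136 (GAP domain); Reagent: human Δ17 ARF1 bound to GTP; Dosing: 16.5 µM single point, 1.26% DMSO; Times: GTP hydrolysis reaction 2 h at 25 °C; Signal: FP, GDP Alexa 633 tracer displaced from anti-GDP antibody, 620/688 nm; Measure: % inhibition from polarization.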
ASAP1 GAP inh = inhibitors of human ASAP1 ArfGAP activity, primary screen, biochemical, fluorescence polarization; Arf-GAP with SH3 domain, ANK repeat and PH domain-containing protein 1 (Homo sapiens), …; ASAP1-stimulated ARF1 GTP hydrolysis, GDP FP detection; inhibition, % at 16.5 µM; actives 0.19% (n = 360,000); in the data active = inhibition above about 25%;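 also: 0% = vehicle with enzyme and substrate and 100% = no enzyme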
MC4R barr agon = MC4R agonists recruiting beta-arrestin, primary screen, cell-based, luminescence, agonist arm of biased-ligand search; U2OS MC4R beta-arrestin complementation; percent of melanotan II response, DMSO zero; actives 0.98% (n = 360,000); Melanocortin receptor 4 (Homo sapiens), P32245; activation, % at 8.9 µM; AID 540308, 2011;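 active = activation above a per-plate cutoff, the mean activation of sample wells on that plate plus 3 SD, cut at about 8% in these data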
UUG fidelity = modulators of yeast start codon fidelity, primary screen, whole organism, S. cerevisiae, single point, plate reader | activity score, % at 18.7 µM | 350,000 tested, 0.13% active | S. cerevisiae UUG-firefly luciferase reporter, luminescence/redox ratio;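 active means replicate mean at a twofold rise or more, about +100% in these data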;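 further: firefly luciferase made from a UUG start codon reports start codon fidelity; reporter light over untreated wells divided by growth signal over untreated wells; some hits fall short of that in this replicate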
MC4R antagonist = MC4R antagonists of cAMP signaling, primary screen, cell-based, TR-FRET, antagonist arm of biased-ligand search; inhibition, % at 6.5 µM; MC4R-expressing cells, MTII-stimulated cAMP, LANCE TR-FRET; Melanocortin receptor 4 (Homo sapiens), P32245; actives 0.48% (n = 360,000);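 active = inhibition above its plate's cutoff, the mean of tested wells on that plate plus 3 SD, cut at about 29% in these data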;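 also: 0% = Melanotan II alone and 100% = Melanotan II plus saturating MCL0020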
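System: U2OS-MC4R stable cell line; Technique: Eu-cAMP/anti-cAMP TR-FRET, emission 671 nm; Repeats: single well per compound; Also added: Melanotan II; Dosing: one concentration, 6.5 µM nominal; Schedule: 30-min compound, 1-h challenge, 1-h detection, room temperature.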
Starred values were filed as active, the others as inactive; x = no result; ! = a repeat was not active. Most compounds without a hit are left out; they make up all but 2.3% or so of the library.

By UniProt entry, the sequences of proteins in these tests, tags left out. Residues count along the entry.
Neuropilin-1 (Homo sapiens), O14786, UniProt O14786, whole entry, looked up: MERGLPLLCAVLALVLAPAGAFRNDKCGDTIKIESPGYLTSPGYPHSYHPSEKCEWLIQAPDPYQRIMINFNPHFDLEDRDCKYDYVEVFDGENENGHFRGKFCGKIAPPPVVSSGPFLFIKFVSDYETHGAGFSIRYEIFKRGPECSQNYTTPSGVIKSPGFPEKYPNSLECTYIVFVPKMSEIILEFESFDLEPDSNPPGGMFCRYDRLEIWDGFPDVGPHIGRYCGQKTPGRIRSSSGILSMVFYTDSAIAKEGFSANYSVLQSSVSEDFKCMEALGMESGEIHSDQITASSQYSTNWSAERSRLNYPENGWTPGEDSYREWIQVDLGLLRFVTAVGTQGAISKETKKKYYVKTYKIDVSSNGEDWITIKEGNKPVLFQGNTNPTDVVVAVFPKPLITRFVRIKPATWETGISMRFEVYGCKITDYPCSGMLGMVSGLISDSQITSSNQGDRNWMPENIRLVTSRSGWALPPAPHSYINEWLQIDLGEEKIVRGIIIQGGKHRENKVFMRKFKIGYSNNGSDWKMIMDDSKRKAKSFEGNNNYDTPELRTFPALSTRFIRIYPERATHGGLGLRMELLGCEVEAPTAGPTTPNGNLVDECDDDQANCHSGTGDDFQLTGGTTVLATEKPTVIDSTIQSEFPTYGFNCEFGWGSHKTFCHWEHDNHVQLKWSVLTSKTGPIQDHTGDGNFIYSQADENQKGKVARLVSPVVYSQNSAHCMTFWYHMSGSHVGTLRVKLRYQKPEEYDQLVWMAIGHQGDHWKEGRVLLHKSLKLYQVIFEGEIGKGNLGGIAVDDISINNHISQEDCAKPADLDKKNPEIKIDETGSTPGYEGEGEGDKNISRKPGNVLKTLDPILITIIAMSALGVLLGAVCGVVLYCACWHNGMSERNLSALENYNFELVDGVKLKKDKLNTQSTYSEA
ADP-ribosylation factor GTPase-activating protein 1 (Rattus norvegicus), Q62848, UniProt Q62848, whole entry, looked up: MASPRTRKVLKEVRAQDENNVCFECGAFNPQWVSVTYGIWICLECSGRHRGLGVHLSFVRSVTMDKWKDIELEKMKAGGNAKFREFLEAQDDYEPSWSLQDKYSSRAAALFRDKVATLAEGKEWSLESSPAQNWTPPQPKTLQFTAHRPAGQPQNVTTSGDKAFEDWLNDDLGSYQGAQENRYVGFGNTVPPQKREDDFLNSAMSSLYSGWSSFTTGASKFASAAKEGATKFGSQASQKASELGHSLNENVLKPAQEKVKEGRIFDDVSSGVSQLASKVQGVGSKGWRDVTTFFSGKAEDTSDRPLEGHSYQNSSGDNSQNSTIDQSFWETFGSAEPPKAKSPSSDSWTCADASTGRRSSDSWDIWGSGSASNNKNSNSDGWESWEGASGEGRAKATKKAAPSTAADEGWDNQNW
ADP-ribosylation factor GTPase-activating protein 1 (Rattus norvegicus), Q62848, UniProt Q62848, 1-136 limits assumed: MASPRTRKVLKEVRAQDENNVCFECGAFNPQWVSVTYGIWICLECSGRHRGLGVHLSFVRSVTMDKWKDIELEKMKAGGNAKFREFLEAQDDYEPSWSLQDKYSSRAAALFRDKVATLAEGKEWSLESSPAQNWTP
Melanocortin receptor 4 (Homo sapiens), P32245, UniProt P32245, whole entry, looked up: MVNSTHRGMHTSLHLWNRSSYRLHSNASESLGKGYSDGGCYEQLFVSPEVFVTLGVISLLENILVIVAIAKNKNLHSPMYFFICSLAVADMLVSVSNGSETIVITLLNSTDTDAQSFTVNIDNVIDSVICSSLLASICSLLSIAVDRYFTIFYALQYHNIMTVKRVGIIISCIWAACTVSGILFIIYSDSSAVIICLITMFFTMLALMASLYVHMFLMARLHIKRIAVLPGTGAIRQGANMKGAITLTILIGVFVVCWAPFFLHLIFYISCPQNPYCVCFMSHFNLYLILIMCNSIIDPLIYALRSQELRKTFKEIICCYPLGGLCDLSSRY

entry	NRP1-CendR mod	ARFGAP1 inh	ASAP1 GAP inh	MC4R barr agon	UUG fidelity	MC4R antagonist	Structure
1	27.8*	-4.2	-9.1	-0.9	-14.0	4.9	CS(=O)(=O)N1CCN(c2ccccc2NC(=O)Cc2ccc(Cl)cc2)CC1
2	39.7*	7.6	2.5	-1.1	3.0	1.3	COc1ccc(C2=CC(=O)CCC2)cc1
3	24.6*	11.6	-0.6	0.6	-3.8	10.6	CCOc1ccc(C(=O)OCC(=O)Nc2ccc3c(c2)OCCO3)cc1OC
4	1.6	2.8	5.6	-0.2	8.1	5.5	COc1cccc(NC(=O)COC(=O)c2ccc3c(c2)OCCO3)c1
5	35.8*	-4.0	12.0	3.9	4.5	-3.5	O=[N+]([O-])c1ccc(-c2nc3ccc([N+](=O)[O-])cc3[nH]2)cc1
6	7.1	13.9	6.5	36.1*	-6.5	9.7	CC[C@@H](C(=O)[C@@H](C)[C@@H](O)[C@H](C)[C@@H]1O[C@@H]([C@@H](CC)C(=O)O)CC[C@@H]1C)[C@H]1O[C@]2(C=C[C@@H](O)[C@]3(CC[C@@](C)([C@H]4CC[C@](O)(CC)[C@H](C)O4)O3)O2)[C@H](C)C[C@@H]1C
7	-5.3	2.9	7.2	1.2	-42.8	11.1	O=S(=O)(c1cccc2cnccc12)N1CCNCC1
8	30.1*	-0.2	9.8	-0.2	-14.6	0.3	O=S(=O)(c1cccc2ccccc12)N1CCSC1
9	x	x	x	x	-25.0	x	COc1ccccc1S(=O)(=O)N[C@@H]1CC[C@H](CC(=O)N2CCCCC2)O[C@@H]1CO
10	19.8*	-0.2	-10.2	x	-7.3	x	O=C(CC[C@H]1O[C@@H](n2cnc3c(NC(=O)c4ccccc4)ncnc32)[C@H](O)[C@@H]1O)NCC(F)(F)F
11	18.4*	-5.8	5.7	x	2.7	x	O=C(/C=C/[C@H]1O[C@@H](n2cnc3c(NC(=O)c4ccccc4)ncnc32)[C@H](O)[C@@H]1O)NCc1cccs1
12	-1.0	-0.2	-3.5	x	-0.6	x	COCCCNC(=O)/C=C/[C@H]1O[C@@H](n2cnc3c(NC(=O)c4ccccc4)ncnc32)[C@H](O)[C@@H]1O
13	x	x	x	x	0.8	x	CC(=O)N[C@@H]1C=C[C@@H](CC(=O)NCc2ccc(Cl)cc2)O[C@H]1CO
14	x	x	x	x	-0.3	x	C[C@@H]1CCCCO[C@@H](CN(C)C(=O)Nc2ccc(F)cc2)[C@H](C)CN([C@@H](C)CO)C(=O)c2cc(NC(=O)CCC(F)(F)F)ccc2O1
15	19.3*	-15.3	-2.9	-0.6	-2.7	0.1	COc1ccc(-n2nc(C(=O)NCC(=O)NC3CCCCCC3)c3ccccc3c2=O)c(OC)c1

Of the compounds above, 2 contain a CF3 group:
entry	NRP1-CendR mod	ARFGAP1 inh	ASAP1 GAP inh	MC4R barr agon	UUG fidelity	MC4R antagonist	Structure
10	19.8*	-0.2	-10.2	x	-7.3	x	O=C(CC[C@H]1O[C@@H](n2cnc3c(NC(=O)c4ccccc4)ncnc32)[C@H](O)[C@@H]1O)NCC(F)(F)F
14	x	x	x	x	-0.3	x	C[C@@H]1CCCCO[C@@H](CN(C)C(=O)Nc2ccc(F)cc2)[C@H](C)CN([C@@H](C)CO)C(=O)c2cc(NC(=O)CCC(F)(F)F)ccc2O1

(continued)
entry	NRP1-CendR mod	ARFGAP1 inh	ASAP1 GAP inh	MC4R barr agon	UUG fidelity	MC4R antagonist	Structure
16	x	x	x	x	-3.5	x	C[C@@H]1CN([C@@H](C)CO)C(=O)c2cccc(NC(=O)c3ccc(-c4nccs4)cc3)c2O[C@@H]1CN(C)S(=O)(=O)c1ccc(F)cc1
17	26.0*	-5.3	-1.6	0.8	7.9	8.4	CC(=O)Nc1ccc(C(=O)Nc2cccc(S(=O)(=O)N(C)c3ccccc3)c2)cc1
18	24.2*	10.6	-2.3	-2.0	-15.2	-2.5	Cc1cc(C)n2c(SCC(=O)Nc3cccc(S(N)(=O)=O)c3)nnc2n1
19	23.5*	9.8	-2.5	-0.4	-4.0	8.0	CN(c1ccccc1)S(=O)(=O)c1cccc(NC(=O)CSc2nncn2C)c1
20	x	x	x	x	-5.4	x	Cc1ccc(S(=O)(=O)N[C@H]2CC[C@@H](CCn3cc(-c4cccc(F)c4)nn3)O[C@H]2CO)cc1
21	x	x	x	x	-9.3	x	C[C@@H]1CN([C@@H](C)CO)C(=O)c2cccc(NC(=O)C3CC3)c2O[C@H]1CN(C)Cc1ccc(C(F)(F)F)cc1
22	-8.6	3.3	-4.0	1.2	-15.4	6.4	Cc1ccc(/C=C(\NC(=O)c2ccc(C)cc2)C(=O)NCCCn2ccnc2)cc1
23	22.8*	-0.7	-7.9	-2.7	x	4.7	Cc1ccc(C(=O)N/C(=C\c2ccccc2)C(=O)NCCCn2ccnc2)cc1
24	x	x	x	x	-9.0	x	CO[C@@H]1CN(C)C(=O)c2ccc(NS(=O)(=O)c3cn(C)cn3)cc2OC[C@@H](C)N(CCC(F)(F)F)C[C@@H]1C
25	x	x	x	x	8.2	x	C[C@H](CO)N1C[C@H](C)[C@@H](CN(C)S(=O)(=O)c2cn(C)cn2)Oc2ccc(NS(=O)(=O)c3cn(C)cn3)cc2CC1=O
26	35.3*	4.8	-11.6	-2.0	-13.0	-4.6	C[C@@H](C(=O)Nc1cccnc1)n1c(=O)[nH]c2ccccc2c1=O
27	10.0	-4.6	-4.3	-1.9	-10.4	1.0	O=C(Cn1c(=O)[nH]c2ccccc2c1=O)Nc1cccnc1
28	2.9	-3.6	2.6	9.6*	-22.5	-1.1	Nc1c(-c2cccs2)cnn1-c1nc(-c2ccc(F)cc2)cs1
29	-2.8	-5.4	0.7	-0.5	15.9	9.5	COc1ccc(-c2csc(-n3ncc(-c4ccccn4)c3N)n2)cc1
30	44.0*	x	x	2.1	-6.8	-6.4	Cc1cc(C(=O)NC(C)C2CCCO2)cs1 (centres undefined)

MC4R barr agon, hit marks shown above
entry	NRP1-CendR mod	ARFGAP1 inh	ASAP1 GAP inh	MC4R barr agon	UUG fidelity	MC4R antagonist	Structure
6	7.1	13.9	6.5	36.1*	-6.5	9.7	CC[C@@H](C(=O)[C@@H](C)[C@@H](O)[C@H](C)[C@@H]1O[C@@H]([C@@H](CC)C(=O)O)CC[C@@H]1C)[C@H]1O[C@]2(C=C[C@@H](O)[C@]3(CC[C@@](C)([C@H]4CC[C@](O)(CC)[C@H](C)O4)O3)O2)[C@H](C)C[C@@H]1C
28	2.9	-3.6	2.6	9.6*	-22.5	-1.1	Nc1c(-c2cccs2)cnn1-c1nc(-c2ccc(F)cc2)cs1

The results go on.
entry	NRP1-CendR mod	ARFGAP1 inh	ASAP1 GAP inh	MC4R barr agon	UUG fidelity	MC4R antagonist	Structure
31	x	x	x	x	4.4	x	Cc1noc(C)c1NC(=O)N(C)C[C@H]1Oc2c(NC(=O)NC(C)C)cccc2C(=O)N([C@@H](C)CO)C[C@@H]1C
32	6.3	5.5	2.9	0.6	-4.0	4.0	Cc1[nH]nc(N=CC2=C(O)CC(c3ccco3)CC2=O)c1-c1ccccc1 (centres undefined)
33	18.8*!	10.1	-5.5	0.7	-21.1	-10.1	Cc1[nH]nc(N=CC2=C(O)CC(C)(C)CC2=O)c1-c1ccccc1
34	x	x	x	x	-23.0	x	C[C@H]1CN([C@@H](C)CO)C(=O)Cc2cc(NC(=O)C3CC3)ccc2O[C@H]1CN(C)Cc1ccccc1
35	2.8	-0.2	5.1	8.8*	-18.7	-2.8	O=C(Nc1nnc(SCc2ccc(Cl)cc2)s1)c1ccco1
36	-23.7	4.8	1.1	9.5*	x	8.9	COc1ccc(OC)c(/C=C2/Sc3ccccc3C2=O)c1
37	x	x	x	x	-2.3	x	CO[C@@H]1CN(C)C(=O)c2ccc(NC(=O)C3CCC3)cc2OC[C@@H](C)N(Cc2cccnc2)C[C@H]1C
38	33.6*	-4.6	-2.1	0.8	-15.6	2.1	O=C(CN1C(=O)NC(Cc2ccccc2)C1=O)Nc1ccc(OC(F)(F)F)cc1 (centres undefined)
39	x	x	x	x	7.8	x	C[C@@H]1CN([C@H](C)CO)S(=O)(=O)c2ccc(-c3cccnc3)cc2O[C@@H]1CN(C)C(=O)CN(C)C
40	34.5*	13.2	5.6	-0.8	-15.8	3.9	COc1cccc(C(=O)NC2CCN(CC(=O)NCc3ccccc3OC)CC2)c1

Screening results deposited in PubChem by several laboratories.
